The source of these data is ChEMBL document CHEMBL5634110, “Applications of oxetanes in drug discovery and medicinal chemistry” (Eur J Med Chem, 2023).

By UniProt entry, the sequences of proteins in these tests, tags left out. Where a name states a change or a piece, a line headed by the entry shows the natural chain unless it says otherwise.
UniProt Q06187: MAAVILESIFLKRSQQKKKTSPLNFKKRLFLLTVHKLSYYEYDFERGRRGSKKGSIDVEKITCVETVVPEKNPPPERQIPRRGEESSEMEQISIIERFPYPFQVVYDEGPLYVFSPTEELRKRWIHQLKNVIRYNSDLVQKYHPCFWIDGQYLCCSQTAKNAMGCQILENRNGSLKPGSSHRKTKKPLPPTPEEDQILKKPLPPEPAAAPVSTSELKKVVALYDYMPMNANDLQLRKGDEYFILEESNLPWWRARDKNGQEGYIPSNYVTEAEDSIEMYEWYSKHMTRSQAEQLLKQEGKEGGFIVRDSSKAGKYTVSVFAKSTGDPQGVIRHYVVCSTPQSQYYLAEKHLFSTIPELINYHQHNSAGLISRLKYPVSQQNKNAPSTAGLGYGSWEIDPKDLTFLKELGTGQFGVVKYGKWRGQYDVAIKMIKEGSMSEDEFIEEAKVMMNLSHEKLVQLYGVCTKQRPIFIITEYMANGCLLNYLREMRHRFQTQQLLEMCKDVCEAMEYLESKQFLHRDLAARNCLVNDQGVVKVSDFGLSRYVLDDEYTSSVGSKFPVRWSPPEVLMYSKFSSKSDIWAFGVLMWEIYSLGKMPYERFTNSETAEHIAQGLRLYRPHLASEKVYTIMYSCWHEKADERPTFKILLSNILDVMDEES

In the assay the target is Tyrosine-protein kinase BTK (Homo sapiens, UniProt Q06187). The experiment in a line: Inhibition of BTK (unknown origin).

Structures are written as SMILES.

`CNC(C)(C)/C=C(\C#N)C(=O)N1CCC[C@H]1Cn1nc(-c2ccc(Oc3ccccc3)cc2F)c2c(N)ncnc21`: inhibition was half-maximal at 16 nM (IC50). In other words, the double-digit nanomolar range.
